Test system: hESC
Assay: Aggregate formation from hESC cultured on Matrigel after BMP pre-differentiation
Type: cell-based, human
Details: 25 ng/mL BMP2 pre-differentiation, control without BMP2 formed no aggregates
Method: b) for 48 hours prior to harvesting, replace growth medium with X-Vivo10+25 ng/mL BMP2; or
3. Prepare a single-cell suspension by treating the hESC culture with TrypIE for 5 minutes, and washing the cells off with X-Vivo10
4. Count cells, spin down and re-suspend to 1 million cells/mL in X-Vivo or other medium of interest. Cells may all derive from a single culture, or cells from different sources may be combined.
5. Suspend cells in X-vivo10 or other medium of interest at a concentration appropriate to the desired EB size and plate format (e.g. to form aggregates from 10,000 cells in 100 μL medium each in 96-well plates, suspend 1 million cells in 10 mL; for aggregates from 2,000 cells in 25 μL medium each in 384-well plates, suspend 0.8 million cells in 10 mL. NB multichannel pipettes or automated liquid handling systems often require a minimum “dead volume”, thus it may be necessary to make 10-20% additional volume of suspension depending on the specifics of the equipment employed.
6. Dispense the cell suspension into the well plates prepared in step 2.
7. Centrifuge for 5 minutes at 240×g
8. Incubate overnight at 37 degrees, 5% CO2 in a standard tissue culture incubator.
9. Recover EBs by pipetting using large-bore or cut-off pipette tips or by inverted centrifugation in the device described and illustrated in FIG. 1 or 2 for 1 minute at 20×g […]

For “BMP2: Bone Morphogenetic Protein-2, growth factor used for pre-differentiation (R&D Systems)”, the “stable aggregate formation after BMP2 pre-differentiation” value was “Aggregates formed from the pre-differentiated population”.
